We go through 1 compound from patent US20150352107A1, “ALPHA7 NEURONAL NICOTINIC RECEPTOR LIGAND AND ANTIPSYCHOTIC COMPOSITIONS” (AbbVie Inc., priority 2005, published 2015).

In this series the test system is Sprague Dawley rats. The conditions noted are these: risperidone 2.5 mg/kg i.p. alone, FIG. 3.

In the case of `Cc1nc2n(c(=O)c1CCN1CCC(c3noc4cc(F)ccc34)CC1)CCCC2` [Risperidone, 3-[2-[4-(6-fluoro-1,2-benzisoxazol-3-yl)-1-piperidinyl]ethyl]-6,7,8,9-tetrahydro-2-methyl-4H-pyrido[1,2-a]pyrimidin-4-one], the “catalepsy, alone” value is recorded as “evoked cataleptic effects”.
